Earlier results in patent publication US12151062B2, “Compositions and devices to administer pharmaceutical compositions nasally” (BOARD OF REGENTS, THE UNIVERSITY OF TEXAS SYSTEM, priority 2016, dated 2024).
Where two headings read alike, the source gives them in different places.

Assays:
[1] = rats; for DTE: mucoadhesive nanoemulsion (0.5% chitosan) i.n.
[2] = mouse, in vivo, iv

Compound | brain uptake (drug accumulation in the brain) compared to i.n. solution alone ([1]; PLGA nanoparticles i.n.) [times] | drug accumulation in the brain compared to drug solution given intravenously ([1]; PLGA nanoparticles i.n.) [times] | DTE ([1]; i.v. control risperidone nanoemulsion) | DTE [1] | brain AUC compared to i.v. solution [2] | brain AUC values, SLNs intranasally vs intravenously [2]
Cc1cc2c(s1)Nc1ccccc1N=C2N1CCN(C)CC1 [Olanzapine] | 10.86 | 6.35 | – | – | – | –
Cc1nc2n(c(=O)c1CCN1CCC(c3noc4cc(F)ccc34)CC1)CCCC2 [Risperidone] | – | – | 476 | DTE-476% | 10-fold | similar
